Results published in article PMC3361267 (Journal of Medicinal Chemistry, 2012).

How the values were obtained:
All OATPs = tested on: All OATPs; design: species or system human; conditions: 10 μM inhibitor
OATP2B1 = biological target: T1, OATP2B1 (Homo sapiens, UniProt O94956); conditions: 10 μM inhibitor
T1 sequence (O94956 1-709): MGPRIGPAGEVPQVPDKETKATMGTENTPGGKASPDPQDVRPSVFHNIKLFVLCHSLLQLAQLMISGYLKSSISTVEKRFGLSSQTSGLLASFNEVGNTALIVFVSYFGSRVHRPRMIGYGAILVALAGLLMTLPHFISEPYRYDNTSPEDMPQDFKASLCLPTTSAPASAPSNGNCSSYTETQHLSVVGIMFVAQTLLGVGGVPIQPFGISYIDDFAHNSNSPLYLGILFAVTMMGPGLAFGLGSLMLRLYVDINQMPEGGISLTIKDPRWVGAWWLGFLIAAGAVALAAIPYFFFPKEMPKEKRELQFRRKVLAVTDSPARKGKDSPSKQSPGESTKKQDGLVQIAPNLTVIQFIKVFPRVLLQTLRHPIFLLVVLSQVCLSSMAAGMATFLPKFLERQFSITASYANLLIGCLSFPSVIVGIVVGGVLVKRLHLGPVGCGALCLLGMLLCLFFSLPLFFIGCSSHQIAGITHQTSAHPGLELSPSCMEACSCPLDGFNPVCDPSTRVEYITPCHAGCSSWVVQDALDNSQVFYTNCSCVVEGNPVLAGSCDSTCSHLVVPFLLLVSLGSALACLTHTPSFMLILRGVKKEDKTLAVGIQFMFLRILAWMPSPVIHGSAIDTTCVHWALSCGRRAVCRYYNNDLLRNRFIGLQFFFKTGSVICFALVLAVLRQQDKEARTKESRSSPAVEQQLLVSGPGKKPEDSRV

Row | Structure (SMILES) | reduction of the overall CLint,uptake of atorvastatin (All OATPs) [%] | reduction of atorvastatin uptake by OATP2B1 (OATP2B1) [%] | increase of the OATP2B1 contribution to the uptake CL of atorvastatin (OATP2B1)
1 | C#Cc1cccc(Nc2ncnc3cc(OCCOC)c(OCCOC)cc23)c1 [erlotinib, Erlotinib] | 32 | 95 | –
2 | CO[C@H]1/C=C/O[C@@]2(C)Oc3c(C)c(O)c4c(O)c(c(/C=N/N5CCN(C)CC5)c(O)c4c3C2=O)NC(=O)/C(C)=C\C=C\[C@H](C)[C@H](O)[C@@H](C)[C@@H](O)[C@@H](C)[C@H](OC(C)=O)[C@@H]1C [rifampicin, Rifampin] | – | – | up to 6 fold
